## Antibody variant affinities, Ab-14 heavy chain, assay 1

The measurements come from Engelhart et al. 2022 (doi:10.1038/s41597-022-01779-4) through the FLAb antibody collection.

The target is the same throughout: PDVDLGDISGINAS, from the HR2 region of SARS-CoV-2 spike.

Parent scFv Ab-14: VH joined to VL by a 15-residue (Gly4Ser)3 linker. Changes lie in the heavy chain CDRs alone.
VH: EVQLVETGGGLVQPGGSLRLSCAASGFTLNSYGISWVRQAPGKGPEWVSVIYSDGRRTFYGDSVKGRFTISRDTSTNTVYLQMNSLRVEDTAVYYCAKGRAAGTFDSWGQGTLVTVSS
VL: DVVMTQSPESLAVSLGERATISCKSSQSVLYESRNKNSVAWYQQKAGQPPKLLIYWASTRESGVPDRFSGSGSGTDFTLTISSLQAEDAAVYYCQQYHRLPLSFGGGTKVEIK

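Phage display of a naive human antibody library on the peptide gave the parent. The library (AAYL49) carries one to three amino acid substitutions per variant, with no insertions or deletions. In AlphaSeq, yeast of one mating type display the scFv and yeast of the other type display the target. After mating in shaken culture at 30 °C for 16 h, diploids were selected and their barcode pairs sequenced. The ratio of observed to expected reads was calibrated, replicate by replicate, on BCL2-family standards whose Kd was known from biolayer interferometry. Mating was done three times.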

The parent's heavy chain CDRs are GFTLNSYGIS, VIYSDGRRTFYGDSVK, GRAAGTFDS; each variant's own CDRs replace them letter for letter.
Values are log10 of the apparent Kd in nM; lower means stronger binding.
Averages over replicates are reported, and they cover detected replicates only.
"ND" means that the variant was in the library but no mating with the target was seen in that replicate; the authors take this as a sign of poor binding, and no number exists.
Nonspecific signal, from three strains lacking the peptide, appeared in 15% of pairings of library AAYL49, centred on 4.06 (5% of these signals below 2.83); values are not corrected for it. For each scFv, signals with the empty controls are counted beside the result.

The variant GFTLNSYGIS, VIYSDGRRTFYGDSVK, GGIAGTFDS gave 0.78, 1.00, 0.56 (mean 0.78; controls 0 of 9).
The variant GFTDQSYGIS, VIYSDGRRTFYGDSVK, GREAGTFDS gave ND, ND, ND (controls 1 of 9).
The variant EFTLNSYGIS, VIYSIGRRTFYGDRVK, GRAAGTFDS gave ND, ND, ND (controls 0 of 9).
The variant GFTLNSYQIS, VIYSDGRRTFYGDSVK, GSAAGYFDS gave ND, ND, 3.63 (controls 1 of 9).
The variant GFTLNSYWIS, VIYSDGRRTFYGDSVK, KRAPGTFDS gave ND, ND, ND (controls 0 of 9).
The variant GFTPNSYGHS, VIYGDGRRTFYGDSVK, GRAAGTFDS gave ND, 3.95, 5.00 (mean 4.48; controls 1 of 9).
The variant GFTLNSYPIS, VIYSMGRRTFYGDSVK, GRARGTFDS gave ND, ND, ND (controls 4 of 9).
The variant GFTLNQYGIS, VIYSDGRRTFYADEVK, GRAAGTFDS gave ND, ND, ND (controls 0 of 9).
The variant GFTANSYGIS, VIYSDGRRHFWGDSVK, GRAAGTFDS gave ND, ND, ND (controls 1 of 9).
The variant GFTLNSYGIS, VIYSDGRRTFYGDSVK, GRAAGTQDS gave ND, 4.06, ND (controls 2 of 9).
The variant GFTLNSYGIS, VIPSDGRQTFYGDSVK, GRAAGDFDS gave ND, ND, ND (controls 0 of 9).
The variant FFTLNSYGIS, VIYSLGRRTFYGDSVK, GREAGTFDS gave ND, ND, ND (controls 0 of 9).
The variant GFTLNSYGFS, VIYSDGTRTFYGDSVK, GRAAGGFDS gave ND, 4.61, ND (controls 5 of 9).
The variant GFTLNSYGIS, VIYSDGMRTFYGDRVK, GRQAGTFDS gave ND, ND, ND (controls 0 of 9).
The variant GFTLNSYMIS, VIYSDGRRTFYGDSNA, GRAAGTFDS gave ND, ND, ND (controls 1 of 9).
The variant GFTLNSYGIS, VIYSDLARTFAGDSVK, GRAAGTFDS gave 3.74, 3.46, ND (mean 3.60; controls 2 of 9).
The variant GFTFNSYGIS, RIYSDGRRTFYGDSRK, GRAAGTFDS gave ND, 3.69, ND (controls 0 of 9).
The variant GFTLNSYGIS, VIYSDGRRTFYYDSVK, GRAAGTMDS gave ND, ND, ND (controls 1 of 9).
The variant GFTLNSYGIS, QIYSDGRRTFYGDSVK, GRAAGTRDM gave ND, 4.01, ND (controls 1 of 9).
The variant GFTLNSYGIC, VIYSDGRNTFQGDSVK, GRAAGTFDS gave ND, ND, ND (controls 4 of 9).
The variant GFTLNSYGIS, VIYSDGRRTFYGDEVN, GRAAHTFDS gave 3.90, ND, 4.06 (mean 3.98; controls 1 of 9).
The variant GFFLNSYGIS, VIYSDGRRTFFGDSVK, GCAAGTFDS gave 4.30, 4.03, 5.33 (mean 4.55; controls 1 of 9).
The variant GFTLNSYGIM, VIYSDYRHTFYGDSVK, GRAAGTFDS gave ND, 2.97, ND (controls 0 of 9).
The variant GFTLNRYGIS, PIYSDGRRTFPGDSVK, GRAAGTFDS gave ND, ND, ND (controls 3 of 9).
The variant WFTLNSYGIS, VIYSDGKRTFYGDMVK, GRAAGTFDS gave ND, ND, ND (controls 0 of 9).
The variant GFTLNSYGKS, VIYSDGRRTFYGDSVK, GTAAGHFDS gave ND, 4.67, ND (controls 1 of 9).
The variant NFTLNNHGIS, VIYSDGRRTFYGDSVK, GRAAGTFDS gave 4.26, 3.62, 4.67 (mean 4.18; controls 4 of 9).
The variant GFTLNSYGIS, VIYSDGRRTFYGDSVC, GRAAGTNDS gave ND, ND, ND (controls 0 of 9).
The variant GFTLNSYGIS, VIYSDGVRRFYGDSVK, GRAWGTFDS gave 4.98, 2.87, 3.70 (mean 3.85; controls 3 of 9).
The variant GYTLNSYGIS, GIYSDGRRTPYGDSVK, GRAAGTFDS gave 4.50, ND, ND (controls 1 of 9).
The variant PFTLNSSGIS, VIYSDGRGTFYGDSVK, GRAAGTFDS gave ND, ND, ND (controls 2 of 9).
The variant GFTLNSYGIS, VIKSDGRRTFYGDCVK, GRAAGTFFS gave ND, 4.72, ND (controls 2 of 9).
The variant GFNLNEYGIS, VIYSDGRRTFYGDSVK, GRAAGTFDL gave 1.45, 1.54, 1.49 (mean 1.49; controls 2 of 9).
The variant GFTLESYGIS, VIKSDGRRTFYGDSVK, GRAAGTFDP gave 5.04, 3.71, ND (mean 4.37; controls 4 of 9).
The variant GFTLNSMGIS, VIYSDGRRTFYGDSVK, GRAWGTQDS gave 3.29, 2.17, ND (mean 2.73; controls 1 of 9).
The variant GLTLNSYGIS, VIRSDGRRTIYGDSVK, GRAAGTFDS gave ND, ND, ND (controls 1 of 9).
The variant GFTLNYYGIS, VIYSDGRHTFYGDSVK, GRASGTFDS gave 4.32, 4.18, ND (mean 4.25; controls 1 of 9).
The variant GFTLLSYGIS, VIYSDGRRTFYKDSVK, GRAAGTFDT gave ND, ND, ND (controls 0 of 9).
The variant GCTLNSYGIS, VIYSDGRRTFYGDSVE, GNAAGTFDS gave ND, ND, ND (controls 0 of 9).
The variant GFTLNSYGIS, VKYSMGRRTFYGDSVK, GRIAGTFDS gave 5.65, 3.55, ND (mean 4.60; controls 3 of 9).
The variant GFTLVSYGSS, VIYSDGRRTFYGDSVK, ARAAGTFDS gave ND, ND, ND (controls 1 of 9).
The variant GFTLNSYGIS, VIYSDFMRTFYGDSVK, GRPAGTFDS gave ND, ND, ND (controls 1 of 9).
The variant GFTLNYYGIS, VIYSDGTRTFYGDSVK, KRAAGTFDS gave 1.12, 0.95, 0.99 (mean 1.02; controls 0 of 9).
The variant GFTLNSYGIS, VIYSDGRRTFYGYSVK, GRASGAFDS gave 3.96, ND, 4.13 (mean 4.04; controls 2 of 9).
The variant GFYLNSYGIS, VIYWDNRRTFYGDSVK, GRAAGTFDS gave ND, ND, ND (controls 1 of 9).
The variant GFTLNSYGIS, GIYSTGRRTFYGDSVI, GRAAGTFDS gave ND, ND, ND (controls 1 of 9).
The variant GFSLNSYGIS, VIYSDGRRTFYFDSVK, GRAAITFDS gave ND, ND, ND (controls 1 of 9).
The variant GFTLNSYGIS, VIYSDGRRTFYGDSVT, GRAAYTFDS gave 5.03, 3.91, ND (mean 4.47; controls 6 of 9).
The variant GFTLNSYGIS, VIYSDGRRTFYIDSVK, CRAANTFDS gave ND, ND, ND (controls 0 of 9).

Again, the first 7 entries without any signal:

| CDR-H1 | CDR-H2 | CDR-H3 | log10 Kd (nM) by replicate | mean, log10 nM | control signals |
|---|---|---|---|---|---|
| GFTDQSYGIS | VIYSDGRRTFYGDSVK | GREAGTFDS | ND, ND, ND | ND | 1 of 9 |
| EFTLNSYGIS | VIYSIGRRTFYGDRVK | GRAAGTFDS | ND, ND, ND | ND | 0 of 9 |
| GFTLNSYWIS | VIYSDGRRTFYGDSVK | KRAPGTFDS | ND, ND, ND | ND | 0 of 9 |
| GFTLNSYPIS | VIYSMGRRTFYGDSVK | GRARGTFDS | ND, ND, ND | ND | 4 of 9 |
| GFTLNQYGIS | VIYSDGRRTFYADEVK | GRAAGTFDS | ND, ND, ND | ND | 0 of 9 |
| GFTANSYGIS | VIYSDGRRHFWGDSVK | GRAAGTFDS | ND, ND, ND | ND | 1 of 9 |
| GFTLNSYGIS | VIPSDGRQTFYGDSVK | GRAAGDFDS | ND, ND, ND | ND | 0 of 9 |